Molecular target: human PD-1 (human) (UniProt Q15116)
Assay: cell-based or functional assay

Protein sequences, listed by entry. Tags and fused reporters are not part of them. Residues count along the entry.
UniProt Q15116, 25-288: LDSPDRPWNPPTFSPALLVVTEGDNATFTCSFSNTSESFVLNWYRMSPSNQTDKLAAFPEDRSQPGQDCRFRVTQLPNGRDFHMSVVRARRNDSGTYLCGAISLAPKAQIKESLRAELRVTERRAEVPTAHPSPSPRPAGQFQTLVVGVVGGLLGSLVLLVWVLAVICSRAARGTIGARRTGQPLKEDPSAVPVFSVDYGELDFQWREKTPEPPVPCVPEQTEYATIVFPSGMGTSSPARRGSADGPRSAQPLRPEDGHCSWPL

EC50 (PD-1/PD-L1 Blockade Bioassay, luminescence): 1.04 µg/mL
Substance: InVivoSIM anti-human-PD-1 (Nivolumab Biosimilar) (antibody)

— patent US20240148877A1
